Measured values as given in ChEMBL document CHEMBL1136157, “Synthesis of 3a,4-dihydro-3H-[1]benzopyrano[4,3-c]isoxazoles, displaying combined 5-HT uptake inhibiting and alpha(2)-adrenoceptor antagonistic activities: a novel series of potential antidepressants” (Bioorg Med Chem Lett, 2003).

Protein sequences, listed by entry. Tags and fused reporters are not part of them.
UniProt P08913, whole entry: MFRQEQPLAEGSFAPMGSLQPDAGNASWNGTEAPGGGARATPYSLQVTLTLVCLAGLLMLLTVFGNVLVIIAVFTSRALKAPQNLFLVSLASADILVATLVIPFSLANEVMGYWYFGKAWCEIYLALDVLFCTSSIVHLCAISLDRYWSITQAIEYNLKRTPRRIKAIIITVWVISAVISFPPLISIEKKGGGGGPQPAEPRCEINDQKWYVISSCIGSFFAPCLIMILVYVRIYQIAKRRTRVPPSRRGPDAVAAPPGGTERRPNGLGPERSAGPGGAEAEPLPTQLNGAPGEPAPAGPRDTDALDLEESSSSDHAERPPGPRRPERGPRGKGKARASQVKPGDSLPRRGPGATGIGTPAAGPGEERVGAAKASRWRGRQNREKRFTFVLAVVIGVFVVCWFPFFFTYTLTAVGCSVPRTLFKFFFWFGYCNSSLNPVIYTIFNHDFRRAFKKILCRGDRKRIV

biological target: Alpha-2A adrenergic receptor (Homo sapiens, UniProt P08913); assay: In vitro binding affinity towards human alpha-2A adrenergic receptor using [3H]rauwolscine

SMILES | Ki [nM]
COc1cccc2c1CCC[C@H]2CN(C)CCc1ccc2ccoc2c1 | 2.4
COc1cc2c(cc1OC)C1=NOC(CN3CCN(C/C=C(\C)c4ccccc4)CC3)C1CO2 (centres undefined) | 1.4
COc1cc2c(cc1OC)C1=NO[C@@H](CN3CCN(C/C=C\c4ccccc4)CC3)[C@@H]1CO2 | 23
COc1cc2c(cc1OC)C1=NOC(CN3CCN(C/C(C)=C/c4ccccc4)CC3)C1CO2 (centres undefined) | 0.8
COc1cc2c(cc1OC)C1=NOC(CN3CCN(C/C=C/c4ccccc4)CC3)C1CO2 (centres undefined) | 8.8
COc1cc2c(cc1OC)C1=NOC(CN3CCN(Cc4ccc5ccccc5c4)CC3)C1CO2 (centres undefined) | 5
COc1cc2c(cc1OC)C1=NO[C@@H](CN3CCN(C/C=C/c4ccccc4)CC3)[C@@H]1CO2 (stereo in doubt; (+)5) | 2.6
COc1cc2c(cc1OC)C1=NO[C@@H](CN3CCN(C/C(C)=C/c4ccccc4)CC3)[C@@H]1CO2 (stereo in doubt; (+)15f) | 0.3
COc1cc2c(cc1OC)C1=NO[C@@H](CN3CCN(C/C=C(\C)c4ccccc4)CC3)[C@@H]1CO2 (stereo in doubt; (+)15g) | 0.3
COc1cc2c(cc1OC)C1=NO[C@@H](CN3CCN(Cc4ccc5ccccc5c4)CC3)[C@@H]1CO2 (stereo in doubt; (+)15h) | 1.3
COc1cc2c(cc1OC)C1=NO[C@@H](CN3CCN(C/C=C/c4ccccc4)CC3)[C@@H]1CO2 (stereo in doubt; (-)5) | 25
COc1cc2c(cc1OC)C1=NO[C@@H](CN3CCN(C/C(C)=C/c4ccccc4)CC3)[C@@H]1CO2 (stereo in doubt; (-)15f) | 16
COc1cc2c(cc1OC)C1=NO[C@@H](CN3CCN(C/C=C(\C)c4ccccc4)CC3)[C@@H]1CO2 (stereo in doubt; (-)15g) | 30
COc1cc2c(cc1OC)C1=NO[C@@H](CN3CCN(Cc4ccc5ccccc5c4)CC3)[C@@H]1CO2 (stereo in doubt; (-)15h) | 93
